Laboratory results published in US8106020B2, “Calcium receptor activator” (Ajinomoto Co., Inc., priority 2005, dated 2012).

Biological target: T1, human calcium receptor (Homo sapiens, UniProt P41180)
T1 construct: expressed in transfected cells; host or cells: Xenopus laevis oocytes microinjected with cRNA; gene amplified by PCR from human kidney cDNA (Clontech) and cloned in pBR322
T1 sequence (P41180 20-1078): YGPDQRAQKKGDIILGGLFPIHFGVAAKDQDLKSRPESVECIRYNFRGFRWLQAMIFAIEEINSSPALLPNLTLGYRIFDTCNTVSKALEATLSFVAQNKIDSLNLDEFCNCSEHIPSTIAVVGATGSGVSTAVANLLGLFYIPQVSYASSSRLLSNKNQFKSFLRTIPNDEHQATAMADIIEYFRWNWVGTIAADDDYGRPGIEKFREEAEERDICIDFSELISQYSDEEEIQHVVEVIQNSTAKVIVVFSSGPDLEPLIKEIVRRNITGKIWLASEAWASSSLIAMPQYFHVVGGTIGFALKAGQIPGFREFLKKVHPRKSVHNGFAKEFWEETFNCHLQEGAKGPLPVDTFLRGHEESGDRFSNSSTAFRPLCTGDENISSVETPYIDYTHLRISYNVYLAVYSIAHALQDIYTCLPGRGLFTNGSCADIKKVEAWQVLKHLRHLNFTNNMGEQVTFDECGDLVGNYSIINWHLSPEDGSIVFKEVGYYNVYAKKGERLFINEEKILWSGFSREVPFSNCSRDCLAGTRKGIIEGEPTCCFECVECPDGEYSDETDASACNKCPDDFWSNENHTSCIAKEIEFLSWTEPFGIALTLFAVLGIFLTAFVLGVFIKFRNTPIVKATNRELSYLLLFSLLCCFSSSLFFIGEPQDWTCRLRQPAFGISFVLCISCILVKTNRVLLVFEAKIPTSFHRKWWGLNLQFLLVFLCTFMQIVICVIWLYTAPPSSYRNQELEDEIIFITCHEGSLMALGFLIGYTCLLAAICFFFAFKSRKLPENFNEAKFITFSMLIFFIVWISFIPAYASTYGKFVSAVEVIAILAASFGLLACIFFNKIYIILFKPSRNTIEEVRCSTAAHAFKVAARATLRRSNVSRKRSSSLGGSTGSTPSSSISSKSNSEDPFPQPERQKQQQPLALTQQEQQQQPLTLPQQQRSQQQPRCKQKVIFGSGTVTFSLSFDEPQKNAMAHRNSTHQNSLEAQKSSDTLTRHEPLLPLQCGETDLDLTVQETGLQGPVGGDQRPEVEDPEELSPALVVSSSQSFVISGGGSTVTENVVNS
Experiment: Calcium receptor activation activity: Ca ion concentration-dependent Cl ionic current in Xenopus laevis oocyte expression system
Format: cell-based
Conditions: FIG. 4
Protocol: To evaluate calcium receptor activation activity, a Ca ion concentration-dependent Cl ionic current measuring method using a Xenopus laevis oocyte expression system was used. If each activator is added to Xenopus laevis oocytes expressing the calcium receptor, intracellular Ca ions increase. Then, the Ca ion concentration-dependent Cl channel opens, and the intracellular current value changes as an ionic current. By measuring the change in this intracellular current value, the presence or absence of calcium receptor activation activity can be determined.
Specifically, the abdomen of Xenopus laevis was opened, and an egg batch was taken out and treated with a 1% collagenase solution at 20° C. for 2 hours to obtain individual oocytes. Into the oocytes, 50 nl of 1 μg/μl receptor cRNA or 50 nl of sterilized water per oocyte was introduced by using a micro glass capillary, and the oocytes were cultured at 18° C. for 2 or 3 days. For the culture, a solution obtained by adding 2 mM pyruvic acid, 10 U/ml of penicillin, and 10 μg/ml of streptomycin to the solution in Example 2 was used. After the culture, a test solution was added to the oocytes containing either the cRNA or sterilized water. Electrophysiological measurement was performed by using an amplifier, Geneclamp500 (Axon), and recording software, AxoScope 9.0 (Axon). The oocytes were voltage-clamped at −70 mV by the double electrode voltage clamp method, and the intracellular current was measured via the Ca ion concentration-dependent Cl ion channel. The maximum value of the intracellular current was considered as the response current value.
Calcium receptor activation activity of L-amino acids was evaluated by using the method described in Example 6. That is, oocytes containing either cRNA of the calcium receptor or sterilized water were prepared, and voltage-clamped at −70 mV by the double electrode voltage clamp method. To the voltage-clamped oocytes, alanine (10 mM), arginine (10 mM), asparagine (10 mM), aspartic acid (10 mM), cysteine (10 mM), glutamine (10 mM), glutamic acid (10 mM), glycine (10 mM), histidine (10 mM), isoleucine (10 mM), leucine (10 mM), lysine (10 mM), methionine (10 mM), phenylalanine (10 mM), proline (10 mM), serine (10 mM), threonine (10 mM), tryptophan (10 mM), tyrosine (10 mM), valine (10 mM), ornithine (10 mM), taurine (10 mM), or hydroxyproline (10 mM) was added, and Ca ion concentration-dependent Cl response current was measured. […] As for the aforementioned amino acids, the activation activity was reported in Proc. Natl. Acad. Sci. USA, 2000 Apr. 25, 97(9):4814-9.
Calcium receptor activation activity of D-cysteine was evaluated by using the method described in Example 6. That is, oocytes containing either cRNA of the calcium receptor or sterilized water were prepared, and voltage-clamped at −70 mV by the double electrode voltage clamp method. To the voltage-clamped oocytes, D-cysteine (10 mM), L-cysteine (10 mM), D-tryptophan (10 mM), or L-tryptophan (10 mM) was added, and Ca ion concentration-dependent Cl response current was measured.
Calcium receptor activation activity of peptides was evaluated by using the method described in Example 6. […]
Calcium receptor activation activity of peptides was evaluated in the same manner as that of Example 10. Each of the peptides shown in Table 2 was added to voltage-clamped oocytes at 1000 μM, 300 μM, 100 μM, 30 μM, 10 μM, 3 μM, 1 μM, 0.3 μM, and 0.1 μM, and Ca ion concentration-dependent Cl response current was measured.

Substance	calcium receptor activation activity (Cl response current) (peptide 50 μM)	calcium receptor activation activity (Cl response current) (peptide 500 μM)
γ-Glu-Ala (EA)	definitive calcium receptor activation activity	–
γ-Glu-Gly (EG)	–	definitive calcium receptor activation activity
γ-Glu-Thr (ET)	definitive calcium receptor activation activity	–
γ-Glu-Met (EM)	–	definitive calcium receptor activation activity
γ-Glu-Val (EV)	definitive calcium receptor activation activity	–
